Yeast mating assay B: variants of the scFv Ab-14

Values reported by Li et al. 2023, doi:10.1038/s41467-023-39022-2 (FLAb copy).

Antigen: PDVDLGDISGINAS, a 14-residue peptide of the SARS-CoV-2 spike HR2 region.

Parent: Ab-14, a human scFv built as VH, three GGGGS repeats, VL. Only the CDRs of the light chain vary.
VH: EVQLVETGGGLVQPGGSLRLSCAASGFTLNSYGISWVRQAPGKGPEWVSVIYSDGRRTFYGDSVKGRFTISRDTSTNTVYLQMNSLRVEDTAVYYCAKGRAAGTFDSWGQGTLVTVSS
VL: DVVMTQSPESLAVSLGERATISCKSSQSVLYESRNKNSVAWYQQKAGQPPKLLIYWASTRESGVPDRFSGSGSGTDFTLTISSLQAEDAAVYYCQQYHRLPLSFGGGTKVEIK

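The starting antibody came from a phage panning campaign against this peptide. These sequences belong to a second round, designed from the earlier measurements on random variants of the parent. Group labels follow the data file (Ctrl: baseline library sampled from a position-specific scoring matrix, with some repeated check sequences; En: ensemble of fine-tuned language models; GP: Gaussian process model; HC: hill climbing; Gen: genetic algorithm; Gibbs: Gibbs sampling; a sequence that several methods proposed may carry one label only). The scFvs were displayed on barcoded MATa yeast, the peptide on MATalpha yeast. Pairs that bind mate more often; barcode pairs of the diploids are counted by sequencing. Each replicate has its own calibration line, from reference interactions of the BCL2 family. Mating was done six times.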

The parent's light chain CDRs are KSSQSVLYESRNKNSVA, WASTRES, QQYHRLPLS; each variant's own CDRs replace them letter for letter. Scale: log10 of Kd in nM, estimated from mating counts; low values are strong binders. The mean shown is taken over the replicates in which the pair was detected. An entry "no signal" has no value in the source: the pair was not observed among the diploids in any replicate. This suggests poor binding but is not conclusive.

CDR-L1,CDR-L2,CDR-L3,group,mean log10 Kd (nM),seen in,empty controls
GIHSQMVGTSAVKENIA,NEAERLE,QQYQRLPLT,En_Gibbs,0.15,6 of 6,0 of 18
KSSRSVLYETRNKNSVA,AATTREY,QQYHRLPLS,Ctrl,0.77,6 of 6,0 of 18
TISDLMHMESRNVNNVA,DLVKREK,QQYHRLPLS,En_HC,-0.27,6 of 6,1 of 18
KLSQSWLYLSRNSNSVA,NASQRED,QQYHRLPLS,GP_Gibbs,-0.13,6 of 6,1 of 18
KSSQSVLYESRNYNCVA,WASTRED,QQYHRLPLA,Ctrl,no signal,0 of 6,0 of 18
KSSQSVLYESRNKNSVA,DASMRES,QQYHRLPLS,Ctrl,0.01,6 of 6,0 of 18
KYSTSELEESRNKNSVA,WASTREL,QQYHRLPLS,GP_Gibbs,3.11,3 of 6,0 of 18
KLSQSTLYESRNKNSVA,NASTRED,QQYHRLPLS,GP_Gen,0.24,6 of 6,0 of 18
KVQQSVVYEGRNKNSVA,HASTRED,QQYHRLPLS,GP_HC,0.08,6 of 6,0 of 18
KMRSGSVLQWNNENSVA,EMSEVYR,QQYVSLPLS,En_Gibbs,no signal,0 of 6,0 of 18
KVSEFMRGLTQRKDSIA,DNNTRGS,QQYDRLPLS,En_Gen,1.45,6 of 6,0 of 18
KLSQSFLYESRNKNNVA,HASTRES,QQYHRLPLS,GP_Gen,-0.62,6 of 6,0 of 18
HVFMELAMEKNSYRNIA,DASMRLA,QQYVRLPLG,En_Gibbs,-0.02,6 of 6,1 of 18
KQSQSVLPESRNKNSVA,DASTRES,QQYHRLPLS,GP_HC,0.63,6 of 6,0 of 18
KSSQSWLYESRNKNSVA,GASHRES,QQYHRLPLS,GP_HC,0.04,6 of 6,1 of 18
RLWQQMYGFNIHKNAIA,EGKERTW,QQYGRLPLS,En_Gibbs,no signal,0 of 6,0 of 18
KSSQSSLYESRNKNSVA,GASTRES,LQYHRLPLS,Ctrl,1.89,1 of 6,0 of 18
KMSQSVLMESRNKNSVA,DASCRES,QQYHRLPLS,GP_HC,-0.16,6 of 6,2 of 18
KLSQMVLYESRNKNSVA,NASTRES,QQYHRLPLS,GP_Gen,-0.03,6 of 6,5 of 18
MISQLMQMGQFAINSVA,QASLRYN,QQYDRLPLM,En_Gen,no signal,0 of 6,0 of 18
KFSQSFLYESRNKNSVA,DASQRES,QQYHRLPLS,GP_Gen,-0.36,6 of 6,2 of 18
KFSQWVLYESRTKNSVA,NASTREE,QQYHRLPLS,GP_HC,-0.01,6 of 6,1 of 18
KSPQSVYYESRNKNSVA,HASTRES,QQYHRLPLS,Ctrl,2.17,2 of 6,0 of 18
KIGATLNTLMHTKNNVA,DLVTREQ,QQYHRLPLS,En_Gen,0.55,6 of 6,1 of 18
KSSQSVLYESRNLNSVA,SASTRES,QQYHRLPLS,Ctrl,0.88,6 of 6,1 of 18
KISMLYNYEQTNKNSIA,EMTTRES,QHYHRLPLS,En_HC,1.65,6 of 6,0 of 18
KLDQLVDMESRNKNAVA,EASTRES,QQYHRLPLS,GP_Gibbs,-0.14,6 of 6,3 of 18
KLGGVTSYEMMNKNSVA,QMTTRES,QQYHRLPLS,En_HC,-0.02,6 of 6,0 of 18
HVHMEMAEWKEILNNVA,DASMRFA,QQYFRLPLG,En_Gibbs,1.32,6 of 6,1 of 18
KWMQSVDQESRNKNSVA,HASTRCQ,QQYHRLPLS,GP_Gibbs,0.61,6 of 6,1 of 18
KSSQSVLYESRNKNSVA,YASTREE,QQYHRLPLS,Ctrl,2.90,4 of 6,0 of 18
KIYMMTGYQSRNADSIA,DNSTRGR,QQYHRLPLS,En_HC,1.66,5 of 6,0 of 18
KSSQSVLKESNNGNSVA,WASTRES,QQYHHLPLS,Ctrl,1.12,6 of 6,0 of 18
KISMSTTFESRNKNSVA,ENSTREN,QSYHRLPLS,En_HC,2.96,4 of 6,1 of 18

Continued, with the values leading:

mean log10 Kd (nM),seen in,empty controls,CDR-L1,CDR-L2,CDR-L3,group
1.00,6 of 6,0 of 18,KIGGVTNGISRSKNSVA,EQSTRED,QQYDRLPLI,En_HC
-0.34,6 of 6,0 of 18,KLPQSVQYESRNKNSVA,NASTRES,QQYHRLPLS,GP_Gen
no signal,0 of 6,1 of 18,KLSISIRGEGSEVQSVA,GAEELRQ,QHYNRLPLS,En_Gibbs
1.48,5 of 6,0 of 18,MISDLTYLGLRNVNSVA,DLEMRGN,QQYDRLPLS,En_HC
0.20,6 of 6,0 of 18,KQQQSGMMESRNQNSVA,HASTRLS,QQYHRLPLS,GP_Gibbs
1.02,6 of 6,0 of 18,SLTNETDGNYGKNNSVA,DAEELMT,QDYFRLPIT,En_Gibbs
0.34,6 of 6,0 of 18,HISGFMKTLSAHINNVA,DMTNRED,QQYDRLPLS,En_Gen
0.39,6 of 6,0 of 18,SIYDATTMESRNKNPIA,DVSTRPS,QQYHRLPLS,En_HC
0.05,6 of 6,0 of 18,KVQQSVPYESRNKNSVA,EASTRES,QQYHRLPLS,GP_Gen
no signal,0 of 6,0 of 18,KSSQSVLFESRNKNSVA,WATTRES,QQYHRLPLS,Ctrl
1.53,6 of 6,0 of 18,KISMSITFESRNKNSVA,ENSTRES,QSYHRLPLS,En_HC
no signal,0 of 6,0 of 18,QLELVQSNDTILENSVA,HAEVSGR,QQYSQLPLI,En_Gibbs
0.72,1 of 6,2 of 18,KSSQSVLYGSRNKNSVA,WASTHES,QQYHRLPLS,Ctrl
1.66,6 of 6,1 of 18,TISSVMNHMTRIDNNVA,NQDMREN,QQYDRLPLS,En_Gen
2.03,6 of 6,1 of 18,KLSQQMLYESRNKNSVA,HASLRLS,QCYHRLPLS,GP_Gibbs
no signal,0 of 6,0 of 18,KSDQHVLYESRNKNSVA,WASTRES,QRYHRLPLS,Ctrl
1.00,6 of 6,2 of 18,NVGQLMDGEYRNKNSVA,HQSTRED,QHYHRLPLS,En_HC
0.71,6 of 6,2 of 18,KLDMNELHQSQNTNCVA,DSAQKCV,QQYSRLPLS,En_Gibbs
-0.33,6 of 6,2 of 18,KSSPSVLYESRNKNSVA,GASTRES,QQYNRLPLS,Ctrl
0.70,6 of 6,0 of 18,KFQQESNNMNDNQNSVA,DESMVQY,QHYWRLPLT,En_Gibbs
1.61,6 of 6,0 of 18,KSSQSVLYESHNKNSVA,WASTREQ,QQYHRLPLS,Ctrl
0.37,6 of 6,0 of 18,KQSQSVLYESRNKNSVA,NASTRES,QQYHRLPLD,GP_HC
no signal,0 of 6,0 of 18,KSSQSNLYESRQKNSVA,WASTRES,QQYHRLPLS,Ctrl
1.92,3 of 6,0 of 18,KSSPSVLYESRNTNSVA,WASTRES,QDYHRLELS,Ctrl
1.31,6 of 6,1 of 18,HVSESVLQQSKMKNSVA,ENSTRES,QQYDRLPLS,En_HC
2.16,6 of 6,0 of 18,NLQLQPRDGAQAQNSIA,DVSEADM,QHYARLPLT,En_Gibbs
0.62,6 of 6,1 of 18,KSSISWLYESRAKNSVA,EASTRES,QQYHRLPLS,GP_HC
2.65,3 of 6,1 of 18,KSSQSVLSESRNKNSVA,WASTRES,QQYHRLPLI,Ctrl
no signal,0 of 6,0 of 18,KHSISGLYESRNYNSVA,WADTRES,QQYHRLPLS,Ctrl
-0.26,6 of 6,1 of 18,KFVQHHDYESRNKNNVA,QASQREQ,QQYHRLPLS,GP_Gibbs
0.56,6 of 6,1 of 18,TISQSMLYLSNLKNSVA,QAETREE,QQYHRLPIS,En_HC
-0.25,6 of 6,0 of 18,DLTGQFNGASQQQHSVA,HGVEKID,QQYVRLPLA,En_Gibbs
1.56,6 of 6,0 of 18,HMHTLMYTANIGENSIA,DANLHVD,QQYFRLPIS,En_Gibbs
1.33,6 of 6,1 of 18,KLSQSVLYGQRNKNSVA,HASTRMS,QQYHRLPLY,GP_Gibbs
1.53,6 of 6,1 of 18,MISNVMNSLTHTGNNVA,DLQEREE,QQYFRLPLS,En_Gen

For reference, 8 entries of the list once more:

CDR-L1,CDR-L2,CDR-L3,group,mean log10 Kd (nM),seen in,empty controls
KSSQSVLSESRNKNSVA,WASTRES,QQYHRLPLI,Ctrl,2.65,3 of 6,1 of 18
HVHMEMAEWKEILNNVA,DASMRFA,QQYFRLPLG,En_Gibbs,1.32,6 of 6,1 of 18
KMSQSVLMESRNKNSVA,DASCRES,QQYHRLPLS,GP_HC,-0.16,6 of 6,2 of 18
KISMSITFESRNKNSVA,ENSTRES,QSYHRLPLS,En_HC,1.53,6 of 6,0 of 18
KFVQHHDYESRNKNNVA,QASQREQ,QQYHRLPLS,GP_Gibbs,-0.26,6 of 6,1 of 18
KISMSTTFESRNKNSVA,ENSTREN,QSYHRLPLS,En_HC,2.96,4 of 6,1 of 18
KLPQSVQYESRNKNSVA,NASTRES,QQYHRLPLS,GP_Gen,-0.34,6 of 6,0 of 18
NVGQLMDGEYRNKNSVA,HQSTRED,QHYHRLPLS,En_HC,1.00,6 of 6,2 of 18

The range of this assay differs from that of the first round, and the authors advise against merging the two. Background: pairings of all light chain designs with three empty control strains gave a value in 4% of cases (median 2.64, 5th percentile 1.59). Values in that range, when seen in few replicates, are hard to tell from nonspecific mating. Also given: how often the same scFv was detected with the empty control strains. The authors averaged sequences with at least three values out of six and counted those with two or fewer as poor binders.